From US20030162727A1, “Use of cyp1b1inhibitors for treating cancer” (priority 2000, published 2003) come the findings set out here.

The data set concerns the target T1, CYP1B1 (Homo sapiens, UniProt Q16678).
T1 sequence (Q16678 1-543): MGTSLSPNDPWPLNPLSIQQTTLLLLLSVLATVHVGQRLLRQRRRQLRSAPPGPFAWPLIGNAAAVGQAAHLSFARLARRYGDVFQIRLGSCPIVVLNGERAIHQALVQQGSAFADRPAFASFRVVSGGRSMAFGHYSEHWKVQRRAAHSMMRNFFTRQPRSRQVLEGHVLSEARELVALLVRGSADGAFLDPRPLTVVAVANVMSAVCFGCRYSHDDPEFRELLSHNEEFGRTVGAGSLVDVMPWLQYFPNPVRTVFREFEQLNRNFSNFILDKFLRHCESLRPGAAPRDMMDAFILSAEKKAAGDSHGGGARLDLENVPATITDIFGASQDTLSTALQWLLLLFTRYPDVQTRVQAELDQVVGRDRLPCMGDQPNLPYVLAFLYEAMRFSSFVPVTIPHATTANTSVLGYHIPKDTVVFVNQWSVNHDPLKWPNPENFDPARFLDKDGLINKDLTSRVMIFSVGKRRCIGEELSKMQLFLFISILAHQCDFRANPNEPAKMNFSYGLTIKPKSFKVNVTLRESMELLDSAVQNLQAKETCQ
The text has this: Recent immunohistochemical analysis of P4501B1 protein in a variety of solid tumours identified tumour-specific enzyme expression (Murray et al, 1998). This provides a mechanism of resistance to currently used anticancer agents, as well as, an approach for targeted prodrug therapy. 7-ethoxyresorufin deethylase activity (EROD) was used to define interactions with cytochrome 1B1 (CYP1B1). 7-Ethoxyresorufin is a known substrate for P4501B1. […] For this purpose, inhibition constants (Ki) have been calculated using in vitro kinetics from CYP1B1-mediated EROD activity. EROD activity and assay has been described previously by various authors (Lubet et al., 1985, Arch. Biochem. Biophys. 238: pp 43-48; Gentest Corporation, 6 Henshaw St., Woburn, Mass. 01801 USA, data sheet given with CYP1B1, catalogue number P220). 7-Ethoxyresorufin is enzymatically deethylated to a product called resorufin. The appearance of resorufin was monitored by a fluorescence detector set at 550 nm and 582 nm (excitation and emission wavelengths). […] Incubations contained: phosphate buffer at pH 7.4, 7-ethoxyresorufin, CYP1B1 Supersomes from Gentest Co (catalogue number P220) and nicotine adenine dinucleotide phosphate (NADP) as cofactor.
The metabolism of anti-cancer drugs by CYP1B1 was studied using an inhibition of EROD assay. […] Ki values were determined by the Dixon's replots: see Table 2.

Turning to `O=c1cc(-c2ccccc2)oc2c1ccc1ccccc12` [α-naphthoflavone], the “Inhibition Type” value is reported as “non-competitive”.
